Experimental data reported in ChEMBL document CHEMBL4177698, “Discovery and in vivo effects of novel human natriuretic peptide receptor A (NPR-A) agonists with improved activity for rat NPR-A” (Bioorg Med Chem, 2017).

Experiments:
[1] = target: T1, Atrial natriuretic peptide receptor 1 (Rattus norvegicus) (UniProt P18910); assay: (§1) Agonist activity at rat NPR-A expressed in CHO cells assessed as increase in cGMP accumulation after 15 mins by fluorescent assay; format: cell-based
T1 sequence (whole entry): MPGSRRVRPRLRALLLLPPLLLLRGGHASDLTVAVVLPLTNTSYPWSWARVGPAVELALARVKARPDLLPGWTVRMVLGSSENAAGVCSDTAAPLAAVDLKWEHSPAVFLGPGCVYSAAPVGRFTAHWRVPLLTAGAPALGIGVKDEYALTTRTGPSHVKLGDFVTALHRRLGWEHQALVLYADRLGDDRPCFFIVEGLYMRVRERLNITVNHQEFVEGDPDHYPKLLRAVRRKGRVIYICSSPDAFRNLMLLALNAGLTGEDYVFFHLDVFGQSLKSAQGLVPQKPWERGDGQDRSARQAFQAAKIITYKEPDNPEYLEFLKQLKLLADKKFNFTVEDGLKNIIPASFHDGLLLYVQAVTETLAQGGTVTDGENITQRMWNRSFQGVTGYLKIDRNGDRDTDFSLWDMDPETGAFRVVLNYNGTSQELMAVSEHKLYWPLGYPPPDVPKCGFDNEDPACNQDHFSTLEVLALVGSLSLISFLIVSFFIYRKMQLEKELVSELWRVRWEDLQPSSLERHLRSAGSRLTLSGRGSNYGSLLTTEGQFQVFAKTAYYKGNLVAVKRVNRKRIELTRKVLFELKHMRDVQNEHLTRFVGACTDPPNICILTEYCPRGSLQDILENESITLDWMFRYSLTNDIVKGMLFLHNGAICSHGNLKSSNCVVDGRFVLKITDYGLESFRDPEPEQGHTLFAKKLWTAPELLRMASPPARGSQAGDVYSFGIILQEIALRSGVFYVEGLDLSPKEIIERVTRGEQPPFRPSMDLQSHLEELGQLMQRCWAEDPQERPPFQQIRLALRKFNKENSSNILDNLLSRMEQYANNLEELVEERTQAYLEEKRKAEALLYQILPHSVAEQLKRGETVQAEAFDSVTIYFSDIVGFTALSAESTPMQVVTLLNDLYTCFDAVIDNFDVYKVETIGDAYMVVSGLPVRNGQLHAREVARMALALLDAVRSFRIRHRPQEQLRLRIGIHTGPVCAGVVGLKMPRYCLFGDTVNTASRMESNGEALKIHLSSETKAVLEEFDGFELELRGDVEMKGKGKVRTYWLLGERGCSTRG

[2] = target: T2, Atrial natriuretic peptide receptor 1 (Rattus norvegicus, UniProt P18910); assay: as §1; format: cell-based
T2 sequence (P18910 whole entry): T1 sequence (whole entry)

For `CC[C@H](C)[C@@H]1NC(=O)[C@H](CCCNC(=N)N)NC(=O)[C@H](CC(=O)O)NC(=O)[C@H]([C@@H](C)CC)NC(=O)[C@H](CCCNC(=N)N)NC(=O)CNC(=O)CNC(=O)[C@H](Cc2ccccc2)NC(=O)[C@@H](NC(=O)[C@H](CO)NC(=O)[C@H](CO)NC(=O)[C@H](CCCNC(=N)N)NC(=O)[C@H](CCCNC(=N)N)NC(=O)[C@H](CC(C)C)NC(=O)[C@@H](N)CO)CSSC[C@@H](C(=O)N[C@@H](CC(N)=O)C(=O)N[C@@H](CO)C(=O)N[C@@H](Cc2ccccc2)C(=O)N[C@@H](CCCNC(=N)N)C(=O)N[C@@H](Cc2ccc(O)cc2)C(=O)O)NC(=O)CNC(=O)[C@H](CC(C)C)NC(=O)CNC(=O)[C@@H](CO)NC(=O)[C@H](CCC(N)=O)NC(=O)[C@H](C)NC(=O)CNC1=O`, which Emax [1] is on record?
Its Emax is 100%.

What about the EC50 [2] of the same compound?
The EC50 was 1 nM.
